Measured values: patent publication EP0478545B1, “1,2,4-BENZOTRIAZINE OXIDES AS RADIOSENSITIZERS AND SELECTIVE CYTOTOXIC AGENTS” (SRI INTERNATIONAL, priority 1989, dated 1991)

System: HA-1 cells
Assay: Hypoxic versus aerobic cytotoxicity from survival curves of cells in suspension culture
Details: compared to 3-amino-1,2,4-benzotriazine 1,4-dioxide (22)

CCN(CC)CCCNc1n[n+]([O-])c2ccccc2[n+]1[O-] [Compound 18a, 3-(3-N,N-diethylaminopropylamino)-1,2,4 benzotriazine 1,4-dioxide]
cytotoxicity against hypoxic HA-1 tumor cells in vitro: significantly enhanced cytotoxicity

CCN(CC)CCNc1n[n+]([O-])c2cc([N+](=O)[O-])ccc2[n+]1[O-] [Compound 21, 7-nitro-3-(2-N,N-diethylaminoethylamino)-1,2,4-benzotriazine 1,4-dioxide hydrochloride]
cytotoxicity against hypoxic HA-1 tumor cells in vitro: significantly enhanced cytotoxicity

Structures can show the parent of a compound that is named as a salt.
